According to patent US6855512B2, “Methods for identifying inhibitors of cytochrome P450RAI” (Allergan, Inc., priority 2000, dated 2005):

Biological target: T1, P450RAI-1 (Homo sapiens, UniProt O43174)
T1 construct: expressed in transfected cells; host or cells: HeLa (stably transfected, hygromycin selection)
T1 sequence (O43174 1-497): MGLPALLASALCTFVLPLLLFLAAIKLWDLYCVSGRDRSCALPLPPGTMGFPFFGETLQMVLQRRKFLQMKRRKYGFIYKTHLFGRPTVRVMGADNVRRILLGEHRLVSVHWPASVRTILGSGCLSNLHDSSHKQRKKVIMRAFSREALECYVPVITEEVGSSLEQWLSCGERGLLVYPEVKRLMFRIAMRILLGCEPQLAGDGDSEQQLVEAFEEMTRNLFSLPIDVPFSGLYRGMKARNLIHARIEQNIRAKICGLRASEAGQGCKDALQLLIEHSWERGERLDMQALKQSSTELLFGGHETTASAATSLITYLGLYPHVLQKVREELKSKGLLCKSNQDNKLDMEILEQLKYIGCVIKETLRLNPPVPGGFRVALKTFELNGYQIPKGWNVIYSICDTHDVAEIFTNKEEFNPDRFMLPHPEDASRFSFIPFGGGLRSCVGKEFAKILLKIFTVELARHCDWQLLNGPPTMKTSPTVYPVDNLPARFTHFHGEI
Assay: P450RAI-1 cell-based inhibitor assay (intact HeLa)
Conditions: P450RAI-1 stably transfected HeLa cells, [3H]-RA, 3 hours at 37° C.; inhibition of all-trans-RA metabolism by 50 percent

Substance | pIC50
4-(4-Imidazol-1-yl-methyl-3-methyl-phenylethynyl)-benzoic acid [Compound 119] | 6.40
[4-(4-Imidazol-1-yl-methyl-3-isopropyl-phenylethynyl)-phenyl]-acetic acid [Compound 127] | 6.40

pIC50: −log10 of the molar value.
